## Experimental vapor pressure values from OPERA 2.9

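The OPERA project collected these measurements from public sources as training and test data for property models. The files give a single number for a compound and property, which may rest on several reports. Conditions of the individual experiments are not part of the data. The measured form (salt, isomer or mixture) is not always the one drawn. Unmarked limits or estimates from the upstream databases cannot be ruled out.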

Vapor pressures (log10 mmHg) refer to near room temperature, 15 to 30 °C; higher is more volatile. The databases behind each value are named after "via".

The entry for CC/C=C\CCOC(C)=O [(3Z)-3-Hexenyl acetate] lists vapor pressure 0.206 (log10 mmHg) (via eChemPortal).
The entry for CCCCCC#CC(=O)OC [Methyl 2-octynoate] lists vapor pressure -1.041 (log10 mmHg) (via eChemPortal).
The entry for CN(C)c1ccc(/N=N/c2n(C)cc[n+]2C)cc1.[Cl-] lists vapor pressure -9.698 (log10 mmHg) (via eChemPortal).
The entry for CCCCCOC(=O)c1c(Cl)c(Cl)cc(Cl)c1OC(=O)C(=O)Oc1c(Cl)cc(Cl)c(Cl)c1C(=O)OCCCCC [Bis(2,4,5-trichloro-6-carbopentoxyphenyl) oxalate] lists vapor pressure -7.648 (log10 mmHg) (via eChemPortal).
The entry for Cl.NNc1ccc(S(N)(=O)=O)cc1 [4-Hydrazinylbenzene-1-sulfonamide--hydrogen chloride (1/1)] lists vapor pressure -12.68 (log10 mmHg) (via eChemPortal).
The entry for CC(C)Sc1ncccc1CCC(F)(F)F [2-(Isopropylthio)-3-(2,2,2-trifluoroethoxy)pyridine] lists vapor pressure -2.142 (log10 mmHg) (via eChemPortal).
The entry for CCc1nc(C)c[nH]1 [2-Ethyl-4-methyl-1H-imidazole] lists vapor pressure -3.543 (log10 mmHg) (via eChemPortal).
The entry for COC(=O)C1CCCO1 (stereo not given) [Methyl oxolane-2-carboxylate] lists vapor pressure 0.154 (log10 mmHg) (via eChemPortal).
The entry for CC(O)C(=O)N(C)C (stereo not given) [Propanamide, 2-hydroxy-N,N-dimethyl-] lists vapor pressure -1.046 (log10 mmHg) (via eChemPortal).
The entry for O=C=NCC1CCCC(CN=C=O)C1 (stereo not given) [1,3-Bis(isocyanatomethyl)cyclohexane] lists vapor pressure -2.824 (log10 mmHg) (via eChemPortal).
The entry for CCOC(=O)CCn1c2c(c3ccccc31)C[C@H](N[C@@H](C)c1ccccc1)CC2 lists vapor pressure -8.061 (log10 mmHg) (via eChemPortal).
The entry for O=C1Cc2cc(CCCl)c(Cl)cc2N1 [6-Chloro-5-(2-chloroethyl)-1,3-dihydro-2H-indol-2-one] lists vapor pressure -8.011 (log10 mmHg) (via eChemPortal).
The entry for C/C=C/C(=O)C1=C(C)CCCC1(C)C [(E)-beta-Damascone] lists vapor pressure -1.71 (log10 mmHg) (via eChemPortal).
The entry for NCCCNC1CCCCC1 [N-(3-Aminopropyl)cyclohexylamine] lists vapor pressure -1.363 (log10 mmHg) (via eChemPortal).
The entry for CCCC(=O)C1=C(O)CC(C2CCCSC2)CC1=O (stereo not given) [2-Butanoyl-3-hydroxy-5-(thian-3-yl)cyclohex-2-en-1-one] lists vapor pressure -7.426 (log10 mmHg) (via eChemPortal).
The entry for COC(=O)CN(CC(=O)OC)c1cc(NC(C)=O)c(/N=N/c2c(Br)cc([N+](=O)[O-])cc2[N+](=O)[O-])cc1OC lists vapor pressure -7.054 (log10 mmHg) (via eChemPortal).
The entry for CC1(C)CC(=O)CC(C)(C#N)C1 (stereo not given) [5-Oxo-1,3,3-trimethylcyclohexanecarbonitrile] lists vapor pressure -2.921 (log10 mmHg) (via eChemPortal).
The entry for CCCCCC1CC(=O)C=C(C)C1C(=O)OCC (stereo not given) lists vapor pressure -4.426 (log10 mmHg) (via eChemPortal).
The entry for CC(C)COC(C)(C)C [Isopropyl tert-butyl ether] lists vapor pressure 1.317 (log10 mmHg) (via eChemPortal).
The entry for CO/N=C1\COc2ccccc21 [(Z)-Benzofuran-3(2H)-one O-methyl oxime] lists vapor pressure -1.321 (log10 mmHg) (via eChemPortal).
The entry for CC/C=C\C#N [(2Z)-2-Pentenenitrile] lists vapor pressure 1.225 (log10 mmHg) (via eChemPortal).
The entry for CCCCCCCCCCCCCCCCCCOC(=O)CC[C@H](NC(=O)CCCCCCCCCCC)C(=O)OCCCCCCCCCCCCCCCCCC [Distearyl lauroyl glutamate] lists vapor pressure -6.62 (log10 mmHg) (via eChemPortal).
The entry for CC(=O)NCC(=O)NCCC(=O)O [N-Acetylglycyl-beta-alanine] lists vapor pressure -4.617 (log10 mmHg) (via eChemPortal).
The entry for CCCCC(O)CO (stereo not given) [1,2-Hexanediol] lists vapor pressure -2.364 (log10 mmHg) (via eChemPortal).
The entry for CCC(C)=NO[Si](C)(ON=C(C)CC)ON=C(C)CC [Methyltri(2-butanoneoximyl)silane] lists vapor pressure -3.195 (log10 mmHg) (via eChemPortal).
The entry for CCCCC(CC)COC(=O)CCCCCCCCC(=O)OCC(CC)CCCC (stereo not given) [Bis(2-ethylhexyl) decanedioate] lists vapor pressure -5.964 (log10 mmHg) (via eChemPortal).
The entry for Cc1cc(N=Nc2cccc([N+](=O)[O-])c2)ccc1N(C)C [N,N-Dimethyl-4-((m-nitrophenyl)azo)-o-toluidine] lists vapor pressure -6.699 (log10 mmHg) (via OCHEM).
The entry for Cc1nc(C)c(C(=O)Nc2ccccc2)s1 [2,4-Dimethyl-N-phenyl-5-thiazolecarboxamide] lists vapor pressure -7.893 (log10 mmHg) (via OCHEM).
The entry for CCO[Si](CC[Si](OCC)(OCC)OCC)(OCC)OCC [1,2-Bis(triethoxysilyl)ethane] lists vapor pressure -2.648 (log10 mmHg) (via eChemPortal).
The entry for COc1cccc(C(C)N)c1 (stereo not given) [1-(3-methoxyphenyl)ethanamine] lists vapor pressure -1.699 (log10 mmHg) (via eChemPortal).
The entry for CCCC1CCC(c2ccc(-c3ccc(CC)cc3)cc2)CC1 (stereo not given) lists vapor pressure -7.355 (log10 mmHg) (via eChemPortal).
The entry for CCCCCCC(=O)CO [1-hydroxy-2-octanone] lists vapor pressure -0.694 (log10 mmHg) (via eChemPortal).
The entry for Clc1cccc(-c2cc(Cl)c(Cl)c(Cl)c2)c1 lists vapor pressure -4.854 (log10 mmHg) (via OCHEM).
The entry for CC(C)(N=NC(C)(C)C1=NCCN1)C1=NCCN1.Cl.Cl lists vapor pressure -5.347 (log10 mmHg) (via eChemPortal).
The entry for C/C=C(C)\C=C\C=C(C)C [(4Z,6Z)-Alloocimene] lists vapor pressure -0.099 (log10 mmHg) (via eChemPortal).
The entry for CCC(C)C1CCCCC1=O (stereo not given) [2-sec-Butylcyclohexan-1-one] lists vapor pressure 0.668 (log10 mmHg) (via eChemPortal).
The entry for CC1(C)CC(N=C=O)CC(C)(CN=C=O)C1 (stereo not given) [Isophorone diisocyanate] lists vapor pressure -3.523 (log10 mmHg) (via PubChem, eChemPortal).
The entry for C=CCO/N=C(\CCC)C1=C(O)CC(C)(C)C(C(=O)OC)C1=O (stereo partly drawn) [Alloxydim] lists vapor pressure -6.001 (log10 mmHg) (via OCHEM).
The entry for C=CC(=O)O[Si](C(C)C)(C(C)C)C(C)C [Tri-isopropyl silyl acrylate] lists vapor pressure -1.133 (log10 mmHg) (via eChemPortal).

Again, the 6 entries with the lowest vapor pressure:

Cl.NNc1ccc(S(N)(=O)=O)cc1 [4-Hydrazinylbenzene-1-sulfonamide--hydrogen chloride (1/1)] is reported with vapor pressure -12.68 (log10 mmHg) (via eChemPortal).
CN(C)c1ccc(/N=N/c2n(C)cc[n+]2C)cc1.[Cl-] is reported with vapor pressure -9.698 (log10 mmHg) (via eChemPortal).
CCOC(=O)CCn1c2c(c3ccccc31)C[C@H](N[C@@H](C)c1ccccc1)CC2 is reported with vapor pressure -8.061 (log10 mmHg) (via eChemPortal).
O=C1Cc2cc(CCCl)c(Cl)cc2N1 [6-Chloro-5-(2-chloroethyl)-1,3-dihydro-2H-indol-2-one] is reported with vapor pressure -8.011 (log10 mmHg) (via eChemPortal).
Cc1nc(C)c(C(=O)Nc2ccccc2)s1 [2,4-Dimethyl-N-phenyl-5-thiazolecarboxamide] is reported with vapor pressure -7.893 (log10 mmHg) (via OCHEM).
CCCCCOC(=O)c1c(Cl)c(Cl)cc(Cl)c1OC(=O)C(=O)Oc1c(Cl)cc(Cl)c(Cl)c1C(=O)OCCCCC [Bis(2,4,5-trichloro-6-carbopentoxyphenyl) oxalate] is reported with vapor pressure -7.648 (log10 mmHg) (via eChemPortal).

Values as listed in the OPERA 2.9 repository of K. Mansouri.